This is a selection; strong and weak results do not stand in their true shares. The source made the active and inactive calls. Cut-off read from the data, not from the text of the source: active = response below about 60% or above about 140%; inactive = in between.
Each molecule was assayed against Guanine nucleotide-binding protein G(o) subunit alpha (Homo sapiens) (UniProt P09471) (assay: RGS8-Galphao binding modulators, primary screen, biochemical, multiplexed bead flow cytometry (AID 1423;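 note: Galphao activated as the GDP aluminium fluoride complex binding bead-coupled RGS8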)). Details: at 10 µM, actives lie on both sides.

The chains behind the UniProt entries cited, without tags or fusion partners.
UniProt P09471, whole entry, looked up: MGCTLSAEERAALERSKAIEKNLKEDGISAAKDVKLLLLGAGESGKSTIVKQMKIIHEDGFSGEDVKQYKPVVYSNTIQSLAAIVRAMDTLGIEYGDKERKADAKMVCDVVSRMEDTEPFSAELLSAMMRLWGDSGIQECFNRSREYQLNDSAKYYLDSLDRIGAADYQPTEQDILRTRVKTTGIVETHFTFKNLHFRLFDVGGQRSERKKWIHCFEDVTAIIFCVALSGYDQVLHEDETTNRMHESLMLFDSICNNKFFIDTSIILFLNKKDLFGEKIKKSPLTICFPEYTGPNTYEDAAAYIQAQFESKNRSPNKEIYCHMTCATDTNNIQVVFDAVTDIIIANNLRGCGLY

SMILES | response (percent of control binding)
CC(C)C(=O)NC(Sc1ccccc1)C(Cl)(Cl)Cl (configuration not stated) | inactive: 102%
O=P(Nc1nccs1)(c1ccccc1)c1ccccc1 | inactive: 96.6%
c1nnnn1CCn1cnnn1 | inactive: 92.8%
C[C@@H]1C=CCP(=O)(Oc2ccccc2)O1 (some centres not stated) | inactive: 98.5%
C[C@H]1OP(=O)(Oc2ccccc2)C[C@@H]2O[C@@H]21 (some centres not stated) | inactive: 101%
CC(=O)Nc1ccc([As](=O)(O)O)c(O)c1 | inactive: 101%
CC(=O)Nc1ccc(Oc2c([N+](=O)[O-])cc([N+](=O)[O-])cc2[N+](=O)[O-])cc1 | inactive: 102%
O=P1(Nc2nc3ccc(Cl)cc3s2)COc2ccccc2O1 (configuration not stated) | inactive: 101%
CCOc1ccc(C2=NCC(CBr)S2)cc1 (configuration not stated) | inactive: 112%
CC(C)(C)C(=O)NC(Sc1ccccc1)C(Cl)(Cl)Cl (configuration not stated) | inactive: 98.7%
CCC(=O)N1C2C3N(C(=O)CC)C1C1N(C(=O)CC)C(C(N1C(=O)CC)N3C(=O)CC)N2C(=O)CC | inactive: 111%
COC(=O)c1cc2c(s1)N=C(c1ccccc1)N(C)P2(=O)N1CCOCC1 (configuration not stated) | inactive: 103%
Cc1ccc(OP(=O)(Nc2ccccn2)Oc2ccc(C)cc2)cc1 | inactive: 103%
CC(=O)NC(SC(=S)N(CC(C)C)CC(C)C)C(Cl)(Cl)Cl (configuration not stated) | inactive: 104%
Cc1ccccc1OP(=O)(Nc1ccccn1)Oc1ccccc1C | inactive: 98.5%
CN(C)C(=O)Oc1noc2ccccc12 | inactive: 95.4%
O=c1c2cc([N+](=O)[O-])ccc2[nH]c2c([N+](=O)[O-])cc([N+](=O)[O-])cc12 | inactive: 102%
c1ccc(-c2nn[nH]n2)c(-c2nn[nH]n2)c1 | active: 48.7%
CCOC(=O)NC(Sc1ccccc1)C(Cl)(Cl)Cl (configuration not stated) | inactive: 92.9%
Cc1ccc(NP(=O)(Oc2cccc(C)c2)Oc2cccc(C)c2)nc1 | inactive: 102%
CCNC(=S)/N=C(\N)N[N+](=O)[O-] | inactive: 97.1%
O=C(NC1CCS(=O)(=O)C1)NP(=S)(Oc1ccccc1)Oc1ccccc1 (configuration not stated) | inactive: 101%

From PubChem BioAssay AID1423 (NMMLSC, 2008)
